Results on one compound are retold here after ChEMBL document CHEMBL1155317, “Design and optimisation of potent gp120-CD4 inhibitors” (Bioorg Med Chem Lett, 2009).

This data set relates to Rattus norvegicus. As to the kind of experiment: Unbound clearance in rat at 1 mg/kg, iv and 1 mg/kg, po. It is filed as ADME, organism-based. To be noted: in vivo.

Regarding `CNC(=O)c1cc(OC)c(O[C@@H](C)C(=O)N2CCN(C(=O)c3ccccc3)C[C@H]2C)cn1`, the CL free stood at 26 mL/min/kg.
